scFv variants of Ab-95 (light chain) against a SARS-CoV-2 spike peptide

The measurements come from Engelhart et al. 2022 (doi:10.1038/s41597-022-01779-4) through the FLAb antibody collection.

Target peptide (SARS-CoV-2 spike, HR2 region): PDVDLGDISGINAS

Ab-95 is the parent antibody, in scFv form: VH, then the linker GGGGSGGGGSGGGGS, then VL. The heavy chain is unchanged in all variants.
VH: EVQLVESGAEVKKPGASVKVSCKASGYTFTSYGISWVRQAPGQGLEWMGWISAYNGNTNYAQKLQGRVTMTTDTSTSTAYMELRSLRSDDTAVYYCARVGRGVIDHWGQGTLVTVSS
VL: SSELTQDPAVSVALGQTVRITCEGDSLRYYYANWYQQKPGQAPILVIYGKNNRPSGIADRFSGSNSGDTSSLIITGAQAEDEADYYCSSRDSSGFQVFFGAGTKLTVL

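Variants in AAYL52 differ from the parent at up to three CDR positions; double and triple changes were sampled at random. AlphaSeq pools MATa yeast showing the antibodies with MATalpha yeast showing the peptide. The frequency of each diploid, read from paired DNA barcodes, reflects how well the two displayed proteins bind. Read counts were normalised to the haploid input and turned into Kd by a linear fit to BCL2-family pairs of known affinity, for each replicate. There are three technical replicates.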

The parent's light chain CDRs are EGDSLRYYYAN, GKNNRPS, SSRDSSGFQVF; each variant's own CDRs replace them letter for letter.
Scale: log10 of Kd in nM, estimated from mating counts; low values are strong binders.
Replicates are averaged; those with no signal do not enter the mean.
Where no diploid with the target was found in any replicate, the entry reads "not detected": below detection, most likely a poor binder, though not proof of it.
As a blank, each scFv also met three strains without target: over library AAYL52, 28% of these pairings were detected, typically at 3.91 and seldom below 2.90. The control count says in how many pairings with the empty strains this scFv gave a signal.
For reference, the parent read 2.31 as the reference entry and 2.25 as a member of this library.

CDR-L1	CDR-L2	CDR-L3	mean log10 Kd (nM)	seen in	control signals
EGDSLREYYAN	GKNNRPS	SSRDSSNVQVF	2.70	3 of 3	2 of 9
EGPSLRYYYAN	GKNNRGS	SSRDSSGFQVP	2.78	3 of 3	2 of 9
EGMSLRYYYAN	GKNNRPS	QSRDSSGFQFF	3.85	2 of 3	3 of 9
EGDSLRYCYAN	GKNNRPS	RSRDSSGFGVF	3.37	3 of 3	3 of 9
EGDSLRVYYAN	GKNNRQS	SSRCSSGFQVF	not detected	0 of 3	0 of 9
EGDSLRYYYAN	GKNNRPS	FSEDGSGFQVF	4.06	1 of 3	2 of 9
EGDSLRYYWKN	GKNNRPW	SSRDSSGFQVF	4.53	3 of 3	4 of 9
WGDSLRYYHAN	GKNNRPS	SSRDSSDFQVF	2.37	3 of 3	2 of 9
EGDSLRYYYAN	GKKIRPS	SSRDSSGFQVV	3.76	2 of 3	3 of 9
EGDSLRYYYAN	GKNDWPP	SSRDSSGFQVF	not detected	0 of 3	1 of 9
EGHSLRYYYAN	GKNNRPS	SLRDSSGFQVW	2.33	3 of 3	2 of 9
EGCSCRLYYAN	GKNNRPS	SSRDSSGFQVF	3.89	3 of 3	4 of 9
EGDSLRYYYAN	GGNYRPS	SSWDSSGFQVF	4.10	3 of 3	2 of 9
EGDSLRYYYVN	GKNDRPS	SSRDLSGFQVF	3.04	3 of 3	0 of 9
EFDSLRYYYAN	GFNNRPS	SGRDSSGFQVF	4.74	2 of 3	0 of 9
EGESLRYYYAN	GKNKRPS	SSRDSSGFQVQ	not detected	0 of 3	1 of 9
EGDSLRYYYNN	GKNNRPS	SSRDWSGFQVR	3.72	3 of 3	2 of 9
EGDSLRYYYAN	GKNNRCS	SSRDSRDFQVF	1.94	3 of 3	3 of 9
EGDSLDYYYAT	IKNNRPS	SSRDSSGFQVF	4.83	1 of 3	3 of 9
EGDVLRYYYAN	GKNNYLS	SSRDSSGFQVF	5.00	1 of 3	3 of 9
EGDSLRYYYAN	GKNNYPS	LSRDDSGFQVF	not detected	0 of 3	1 of 9
EGDSLRYYYAN	MKNYRPS	SSRDSSGFQLF	4.01	1 of 3	2 of 9
EGDSLRYLYAN	GKHNRPS	ASRDSSGFQVF	3.73	1 of 3	4 of 9
EGDSLVYYYAN	GKPNRPS	SSRDSSCFQVF	5.31	1 of 3	3 of 9
EGDSLRRTYAN	GKNNRPS	SSRDSSGMQVF	2.03	3 of 3	2 of 9
ENDSLKYYYAN	GKNNRPW	SSRDSSGFQVF	not detected	0 of 3	0 of 9
EGDSLRYYYPN	GKNNRPF	SSRDSSGPQVF	3.23	3 of 3	5 of 9
EGDSYRYYYAN	GKNNRPT	SSRDSSGFQVW	3.81	2 of 3	3 of 9
EGDSLRYYYAN	GKNNRPS	SSRDSSPFQVG	2.02	3 of 3	3 of 9
EGDSLRYYYAN	GKNNRPS	SSRDSSLFHVF	3.01	3 of 3	2 of 9
EGDSLRYYVAN	GKNNRPS	SSTDTSGFQVF	3.32	1 of 3	1 of 9
EGDSLRYMYAN	GSNNRPS	SSRDSSGYQVF	3.62	2 of 3	6 of 9
EGDSLMYYYAN	GKHNRPS	GSRDSSGFQVF	3.42	2 of 3	4 of 9
ENDSLRYYYAN	QKNNRPS	SSRDSSGFQVF	4.81	3 of 3	2 of 9
SGDSARYYYAN	GKNNRPS	SSRDSSPFQVF	3.32	3 of 3	2 of 9
NGDSLRYYYAN	GKNNRPS	SSRDSSGFAFF	2.53	3 of 3	6 of 9
EGDSRRYYQAN	GKQNRPS	SSRDSSGFQVF	4.70	3 of 3	2 of 9
EGDSLRYYYAN	GKNNRPS	MLRDSSGYQVF	2.10	3 of 3	4 of 9
EGDSLRYYYAN	IKNNRPS	SSRDQSGFQVF	4.09	2 of 3	1 of 9
EGDALRYYYAN	GKNNRPS	SSRDSNGFQVF	2.49	3 of 3	2 of 9
EGDSLRYYYAN	GKNNRIS	SSRTSSFFQVF	4.40	2 of 3	1 of 9
EGDSLRYYYAN	GKNNRPS	SSSDSSGTQAF	not detected	0 of 3	1 of 9
EGDSLRYYYAV	GKNNRPS	SSRDSSGLHVF	4.13	2 of 3	3 of 9
RGDSLRYYYAT	GKNNRPE	SSRDSSGFQVF	2.65	2 of 3	2 of 9
EGDGLRYYYAN	SKNNRPS	SSRDSSGRQVF	2.59	3 of 3	2 of 9
EGDSLRPYYAN	GKNNRPS	SSRDSSGFQKF	2.81	3 of 3	4 of 9
EGDSLRYYYAN	GRNNRFS	SSRDSSPFQVF	3.82	3 of 3	5 of 9
EGDSVRYYYAN	GKNNRDE	SSRDSSGFQVF	4.40	2 of 3	3 of 9
EMDSLRYYYAN	GKNNEPS	VSRDSSGFQVF	not detected	0 of 3	2 of 9
EGDSLRYYYAN	CKNNRPS	SSRDSSGNQFF	4.21	2 of 3	3 of 9
EGDSLRYKYAN	GLNNNPS	SSRDSSGFQVF	3.73	1 of 3	2 of 9
EGDSLRYYCWN	GKNNRPL	SSRDSSGFQVF	4.66	1 of 3	1 of 9
EGDSLRYYYAN	GKGNRPS	SARDSFGFQVF	3.64	3 of 3	0 of 9
EGDSLRYYYAN	GKNNMPS	SSRQSSGFQVF	not detected	0 of 3	0 of 9
EGDSLRYYYAN	GKNMRPS	SSRDYSGFQKF	2.22	3 of 3	2 of 9
EGDSLRYDYAN	GKPNRPS	SSRDSSGFTVF	3.23	1 of 3	2 of 9
EGDSLRYYMAN	GKNNRPS	SSQDLSGFQVF	1.99	3 of 3	3 of 9
EGKSLRYYYAN	GDNRRPS	SSRDSSGFQVF	2.03	3 of 3	5 of 9
EGDSLRYYHAN	GKNNRPS	YSRDSSFFQVF	1.70	3 of 3	3 of 9
EGDSLRYYYAN	GKNNRPS	SSRASSGMQKF	3.71	1 of 3	4 of 9
EGDSLFYSYAN	GKNNRPS	SSRDSSGFQVF	0.87	3 of 3	6 of 9
AGDSLRYYYAN	GKANQPS	SSRDSSGFQVF	3.72	3 of 3	3 of 9
EGDSLRYYYIN	GKNNRPS	SSRDSSGQQWF	3.65	1 of 3	1 of 9
EGDSLQYYYAN	MKNGRPS	SSRDSSGFQVF	3.60	1 of 3	4 of 9
EMDSLSYYYAN	GKNNRPS	SSRDSSGFQVF	3.66	3 of 3	2 of 9
SGDSLPYYYAN	GKNNRGS	SSRDSSGFQVF	2.46	3 of 3	3 of 9
EGDSLRSYYAN	GKNNRTS	SSRDSSGFQGF	3.23	3 of 3	4 of 9
EGDSLRYYCPN	GKNNRPS	MSRDSSGFQVF	1.25	3 of 3	2 of 9
EGDSLPYYYAN	GKTNRPS	SLRDSSGFQVF	3.59	3 of 3	1 of 9
EGDSLRYYYWN	GKNNRPS	PSRDSSGFQVF	3.13	1 of 3	1 of 9
ERDWLRYYYAN	GKNNRPS	YSRDSSGFQVF	4.69	1 of 3	3 of 9
EGDSLRYYYAV	GCNNRPS	SSRDCSGFQVF	4.10	2 of 3	3 of 9
EGDSWRYYYAN	GKNNRPS	SSADSVGFQVF	not detected	0 of 3	0 of 9
EGDSLIYYYDN	GKNNRPS	SSRDSSGFNVF	1.69	3 of 3	6 of 9
EGDSLRYYYAN	GKENRGS	SSRDSSGSQVF	2.53	3 of 3	5 of 9
EGDSLRYYYAN	GKNNEMS	SSRDSSGFQVF	3.58	3 of 3	3 of 9
EGDSLRYYYAL	GKNNAPS	SKRDSSGFQVF	not detected	0 of 3	2 of 9
ETDSLRYYYAN	GKNNRPY	SSRDSSGTQVF	3.06	3 of 3	2 of 9
EGDSLRYYYPN	GKNNRVS	SIRDSSGFQVF	1.97	3 of 3	3 of 9
EGDSLRFYYAN	GKNNRPS	SWRDSSGFTVF	2.48	3 of 3	6 of 9

Top 13 of the variants detected in all replicates, tightest first:

CDR-L1	CDR-L2	CDR-L3	mean log10 Kd (nM)	seen in	control signals
EGDSLFYSYAN	GKNNRPS	SSRDSSGFQVF	0.87	3 of 3	6 of 9
EGDSLRYYCPN	GKNNRPS	MSRDSSGFQVF	1.25	3 of 3	2 of 9
EGDSLIYYYDN	GKNNRPS	SSRDSSGFNVF	1.69	3 of 3	6 of 9
EGDSLRYYHAN	GKNNRPS	YSRDSSFFQVF	1.70	3 of 3	3 of 9
EGDSLRYYYAN	GKNNRCS	SSRDSRDFQVF	1.94	3 of 3	3 of 9
EGDSLRYYYPN	GKNNRVS	SIRDSSGFQVF	1.97	3 of 3	3 of 9
EGDSLRYYMAN	GKNNRPS	SSQDLSGFQVF	1.99	3 of 3	3 of 9
EGDSLRYYYAN	GKNNRPS	SSRDSSPFQVG	2.02	3 of 3	3 of 9
EGDSLRRTYAN	GKNNRPS	SSRDSSGMQVF	2.03	3 of 3	2 of 9
EGKSLRYYYAN	GDNRRPS	SSRDSSGFQVF	2.03	3 of 3	5 of 9
EGDSLRYYYAN	GKNNRPS	MLRDSSGYQVF	2.10	3 of 3	4 of 9
EGDSLRYYYAN	GKNMRPS	SSRDYSGFQKF	2.22	3 of 3	2 of 9
EGHSLRYYYAN	GKNNRPS	SLRDSSGFQVW	2.33	3 of 3	2 of 9